Results published in US8916132B2, “Benzimidazole-derived compounds use as markers in the case of neurodegenerative diseases” (Servicios Cientificos Neuroinnovation Ltda, priority 2008, dated 2014).

Experiment: Partition coefficient octanol / pH 7.4 tampon
Details: partition coefficient in relation to ability to cross the HEB
Procedure: The analyzed parameters were: specific permeability (Sp), this is an indicator of the compound's ability to cross the hematoencephalic barrier (HEB) by passive diffusion, and the partition coefficient (LogP), which corresponds to the partition coefficient of the compound between Octanol and the pH 7.4 phosphate tampon, which is a predictive element for the compound's penetration of the HEB.
Briefly, the partition coefficient (log Po/w) was determined in a pH 7.4 tampon solution, adjusted with 0.1 M sodium hydroxide. The organic phase utilized octanol saturated with the pH 7.4 tampon solution. A 1 mg/mL solution of the drug in methanol was prepared. Dilutions with concentrations ranging from 0.02 to 0.4 mg/mL were prepared from these solutions. Then […] portions were taken from each of these previously prepared stock solutions in 25 mL volumetric flasks, with the volume completed with the tampon pH 7.4. 25 ml of octanol where then measured and placed in three decantation funnels, with the previously prepared solutions added to each, mixing both phases by vigorous agitation during two minutes. […] Both phases are separated once equilibrium had been reached. The aqueous phase was centrifuged during 3 minutes to ensure complete separation of the phases. […] The quantification was carried out with a UVN spectrophotometer.

Cc1c(OCC(F)(F)F)ccnc1C[S+]([O-])c1nc2ccccc2[nH]1 (stereo not shown) [Lansoprazole]
CNS LogP: Favorable
